Reference: patent US8816078B2, “Acidic gas removal by aqueous amine solvents” (Board of Regents, The University of Texas System, priority 2010, dated 2014)

Assay: Solubility and solids precipitation limits of amines in water
Format: physicochemical
[1] = rich conditions, ambient temperature

amine concentration above which solids precipitate [1] | solids precipitation (2 m, loaded with 0.5 moles CO2/mole taurate, ambient temperature) | solids precipitation (3.94 m, loaded with 0.4 moles CO2/mole taurate, 23° C.) | concentration limit by precipitation of solids (partially neutralized by KOH, rich conditions) | SMILES
exceeds 1 m | – | – | – | C[C@@H]1CN[C@@H](C)CN1 [2,5-trans-dimethyl piperazine]
exceeds 5 m | – | – | – | CC(C)(N)CO [2-amino-2-methyl-1-propanol]
greater than 2 m | precipitated solids | precipitated solids | about 3 M | NCCS(=O)(=O)O [Taurine, 2-amino-ethanesulfonic acid]
